The record followed here is patent US4343816A, “Pharmaceutical composition comprising an acyl-carnitine, for treating peripheral vascular diseases” (priority 1979, dated 1982).

The data set can be described thus: in vivo. The note with it: mouse, iv. The text has this:
As is known, carnitine contains an asymetrical carbon atom and consequently exists in two stereoisomer forms.
What is called LD50 is the dose at which mortality reaches 50%. A low value points to greater toxicity. `CCCC(=O)OC(CC(=O)[O-])C[N+](C)(C)C` (stereo not shown) [butyryl-carnitine] displayed an LD50 of 742 mg/kg. Consider `CCCCCC(=O)OC(CC(=O)[O-])C[N+](C)(C)C` (stereo not shown) [hexanoyl-carnitine], for which the LD50 amounted to 695 mg/kg.

In the case of `CCCCCCCC(=O)OC(CC(=O)[O-])C[N+](C)(C)C` (stereo not shown) [octanoyl-carnitine], the LD50 is 630 mg/kg.

`CCC(=O)OC(CC(=O)[O-])C[N+](C)(C)C` (stereo not shown) [propionyl-carnitine] showed an LD50 of 761 mg/kg.
